Some compounds may have been tested in ways that are not shown here.
Test: Absorption and distribution of [14C]TNT in sheep
Details: oral 35.5 mg; for % of [14C]TNT dose in tissues, total / % of [14C]TNT dose in tissues: adipose / % of [14C]TNT dose in tissues: bile / % of [14C]TNT dose in tissues: blood / % of [14C]TNT dose in tissues: bone / % of [14C]TNT dose in tissues: brain / % of [14C]TNT dose in tissues: eye / % of [14C]TNT dose in tissues: heart / % of [14C]TNT dose in tissues: kidney / % of [14C]TNT dose in tissues: large intestine content / % of [14C]TNT dose in tissues: large intestine tissue / % of [14C]TNT dose in tissues: liver / % of [14C]TNT dose in tissues: lung / % of [14C]TNT dose in tissues: remainder of carcass / % of [14C]TNT dose in tissues: rumen content / % of [14C]TNT dose in tissues: rumen tissue / % of [14C]TNT dose in tissues: skeletal muscle / % of [14C]TNT dose in tissues: skin / % of [14C]TNT dose in tissues: small intestine content / % of [14C]TNT dose in tissues: small intestine tissue / % of [14C]TNT dose in tissues: spleen / % of [14C]TNT dose in tissues: thyroid: at slaughter

2,4,6-trinitro-[^14C]toluene
% of [14C]TNT dose in cage wash (wether 368): 0.2% | % of [14C]TNT dose in feces T0-6 (wether 368): 0.2% | % of [14C]TNT dose in feces T6-12 (wether 368): 2.7% | % of [14C]TNT dose in feces T12-18 (wether 368): 11.4% | % of [14C]TNT dose in feces T18-24 (wether 368): 6.6% | % of [14C]TNT dose in feces T24-32 (wether 368): 11.7% | % of [14C]TNT dose in feces T32-40 (wether 368): 14.8% | % of [14C]TNT dose in feces T40-48 (wether 368): 9.4% | % of [14C]TNT dose in feces T48-60 (wether 368): 11.4% | % of [14C]TNT dose in feces T60-72 (wether 368): 5.8% | % of [14C]TNT dose in feces, total (wether 368): 74.0% | % of [14C]TNT dose in urine T0-6 (wether 368): 13.7% | % of [14C]TNT dose in urine T6-12 (wether 368): 2.6% | % of [14C]TNT dose in urine T12-18 (wether 368): 0.8% | % of [14C]TNT dose in urine T18-24 (wether 368): 0.3% | % of [14C]TNT dose in urine T24-32 (wether 368): 0.2% | % of [14C]TNT dose in urine T32-40 (wether 368): 0.2% | % of [14C]TNT dose in urine T40-48 (wether 368): 0.1% | % of [14C]TNT dose in urine T48-60 (wether 368): 0.2% | % of [14C]TNT dose in urine T60-72 (wether 368): 0.1% | % of [14C]TNT dose in urine, total (wether 368): 18.2% | total recovery (%) of [14C]TNT dose (wether 368): 99.7% | % of [14C]TNT dose in tissues, total (wether 368): 7.31% | % of [14C]TNT dose in tissues: adipose (wether 368): 0.00% | % of [14C]TNT dose in tissues: bile (wether 368): 0.00% | % of [14C]TNT dose in tissues: blood (wether 368): 0.00% | % of [14C]TNT dose in tissues: bone (wether 368): 0.00% | % of [14C]TNT dose in tissues: brain (wether 368): 0.00% | % of [14C]TNT dose in tissues: eye (wether 368): 0.01% | % of [14C]TNT dose in tissues: heart (wether 368): 0.00% | % of [14C]TNT dose in tissues: kidney (wether 368): 0.01% | % of [14C]TNT dose in tissues: large intestine content (wether 368): 3.02% | % of [14C]TNT dose in tissues: large intestine tissue (wether 368): 0.02% | % of [14C]TNT dose in tissues: liver (wether 368): 0.06% | % of [14C]TNT dose in tissues: lung (wether 368): 0.00% | % of [14C]TNT dose in tissues: remainder of carcass (wether 368): 0.03% | % of [14C]TNT dose in tissues: rumen content (wether 368): 3.84% | % of [14C]TNT dose in tissues: rumen tissue (wether 368): 0.09% | % of [14C]TNT dose in tissues: skeletal muscle (wether 368): 0.00% | % of [14C]TNT dose in tissues: skin (wether 368): 0.06% | % of [14C]TNT dose in tissues: small intestine content (wether 368): 0.15% | % of [14C]TNT dose in tissues: small intestine tissue (wether 368): 0.02% | % of [14C]TNT dose in tissues: spleen (wether 368): 0.00% | % of [14C]TNT dose in tissues: thyroid (wether 368): 0.00% | % of [14C]TNT dose in cage wash (wether 370): 0.4% | % of [14C]TNT dose in feces T0-6 (wether 370): 0.2% | % of [14C]TNT dose in feces T6-12 (wether 370): 3.3% | % of [14C]TNT dose in feces T12-18 (wether 370): 12.1% | % of [14C]TNT dose in feces T18-24 (wether 370): 10.7% | % of [14C]TNT dose in feces T24-32 (wether 370): 15.8% | % of [14C]TNT dose in feces T32-40 (wether 370): 16.3% | % of [14C]TNT dose in feces T40-48 (wether 370): 8.6% | % of [14C]TNT dose in feces T48-60 (wether 370): 8.8% | % of [14C]TNT dose in feces T60-72 (wether 370): 3.3% | % of [14C]TNT dose in feces, total (wether 370): 79.1% | % of [14C]TNT dose in urine T0-6 (wether 370): 11.5% | % of [14C]TNT dose in urine T6-12 (wether 370): 2.6% | % of [14C]TNT dose in urine T12-18 (wether 370): 0.6% | % of [14C]TNT dose in urine T18-24 (wether 370): 0.4% | % of [14C]TNT dose in urine T24-32 (wether 370): 0.2% | % of [14C]TNT dose in urine T32-40 (wether 370): 0.2% | % of [14C]TNT dose in urine T40-48 (wether 370): 0.2% | % of [14C]TNT dose in urine T48-60 (wether 370): 0.1% | % of [14C]TNT dose in urine T60-72 (wether 370): 0.1% | % of [14C]TNT dose in urine, total (wether 370): 15.9% | total recovery (%) of [14C]TNT dose (wether 370): 98.9% | % of [14C]TNT dose in tissues, total (wether 370): 3.53% | % of [14C]TNT dose in tissues: adipose (wether 370): 0.00% | % of [14C]TNT dose in tissues: bile (wether 370): 0.00% | % of [14C]TNT dose in tissues: blood (wether 370): 0.00% | % of [14C]TNT dose in tissues: bone (wether 370): 0.05% | % of [14C]TNT dose in tissues: brain (wether 370): 0.00% | % of [14C]TNT dose in tissues: eye (wether 370): 0.00% | % of [14C]TNT dose in tissues: heart (wether 370): 0.00% | % of [14C]TNT dose in tissues: kidney (wether 370): 0.01% | % of [14C]TNT dose in tissues: large intestine content (wether 370): 1.78% | % of [14C]TNT dose in tissues: large intestine tissue (wether 370): 0.01% | % of [14C]TNT dose in tissues: liver (wether 370): 0.08% | % of [14C]TNT dose in tissues: lung (wether 370): 0.01% | % of [14C]TNT dose in tissues: remainder of carcass (wether 370): 0.02% | % of [14C]TNT dose in tissues: rumen content (wether 370): 1.36% | % of [14C]TNT dose in tissues: rumen tissue (wether 370): 0.03% | % of [14C]TNT dose in tissues: skeletal muscle (wether 370): 0.03% | % of [14C]TNT dose in tissues: skin (wether 370): 0.08% | % of [14C]TNT dose in tissues: small intestine content (wether 370): 0.06% | % of [14C]TNT dose in tissues: small intestine tissue (wether 370): 0.01% | % of [14C]TNT dose in tissues: spleen (wether 370): 0.00% | % of [14C]TNT dose in tissues: thyroid (wether 370): 0.00%
